Ab-91 heavy chain CDR variants: yeast mating affinities

Antigen: PDVDLGDISGINAS, a 14-residue peptide of the SARS-CoV-2 spike HR2 region.

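Phage display of a naive human antibody library on the peptide gave the parent. The library (AAYL51) carries one to three amino acid substitutions per variant, with no insertions or deletions. The assay is AlphaSeq: two haploid yeast populations carry antibody and antigen on their surface. After mating in shaken culture at 30 °C for 16 h, diploids were selected and their barcode pairs sequenced. The ratio of observed to expected reads was calibrated, replicate by replicate, on BCL2-family standards whose Kd was known from biolayer interferometry. Mating was done three times.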

Parent scFv Ab-91: VL joined to VH by a 15-residue (Gly4Ser)3 linker. Changes lie in the heavy chain CDRs alone.
VL: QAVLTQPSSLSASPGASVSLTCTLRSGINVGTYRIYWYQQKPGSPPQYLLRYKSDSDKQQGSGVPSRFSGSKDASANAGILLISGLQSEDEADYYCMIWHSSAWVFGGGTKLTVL
VH: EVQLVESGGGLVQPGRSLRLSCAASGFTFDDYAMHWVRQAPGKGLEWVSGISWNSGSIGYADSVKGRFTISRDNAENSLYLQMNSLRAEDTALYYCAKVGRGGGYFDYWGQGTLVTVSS

Each variant is given by its three heavy chain CDRs, as the data file delimits them; those of the parent are GFTFDDYAMH, GISWNSGSIGYADSVK, VGRGGGYFDY. The read-out is the apparent dissociation constant on a log10 scale (nM): the lower, the stronger. Averages over replicates are reported, and they cover detected replicates only. A pair that was not seen in any replicate is written "no signal"; this usually means weak binding, but a binder can also be missed. Parent in this assay: reference entry 1.86, copy in this library 0.88. Background: pairings of library AAYL51 with three empty control strains gave a value in 21% of cases (median 4.54, 5th percentile 3.26). Values in that range, when seen in few replicates, are hard to tell from nonspecific mating. For each scFv, signals with the empty controls are counted beside the result.

| mean log10 Kd (nM) | detected | signal with controls | CDR-H1 | CDR-H2 | CDR-H3 |
|---|---|---|---|---|---|
| 4.57 | 3/3 | 6/9 | GFTFDDYAMH | GISWISTSIGYADSVL | VGRGGGYFDY |
| 5.76 | 1/3 | 1/9 | GFTFDDYAMH | GISWNSGSLGYTDSVK | VGRGHGYFDY |
| 1.09 | 3/3 | 0/9 | GFTFDDYAMH | GISHNSGSIGYADSVK | VGRGGGYPDY |
| 4.07 | 2/3 | 5/9 | IFTFDDYAMH | GISWNSGCIGYADSVK | VGRGGGYFDY |
| 4.54 | 2/3 | 3/9 | GFTFDDYAMH | GISWNSGSIGYADSVK | VGRGGGIFDG |
| 2.96 | 1/3 | 1/9 | GFTFDDYAAH | GCSWYSGSIGYADSVK | VGRGGGYFDY |
| 4.26 | 1/3 | 1/9 | GFTFDDYAMH | GREWNSWSIGYADSVK | VGRGGGYFDY |
| 4.90 | 2/3 | 1/9 | GFTFDDKAMH | GISWNSGSIGHADSVK | VGDGGGYFDY |
| 4.02 | 1/3 | 2/9 | GFTFFDLAMH | GISWNSGSIGYADSVK | VGRGGGYFDQ |
| no signal | 0/3 | 1/9 | GETFDDYIMH | GISVNSGSIGYADSVK | VGRGGGYFDY |
| no signal | 0/3 | 1/9 | GFGFDDYAMH | GISWNSGSIGYAMSVK | VPRGGGYFDY |
| no signal | 0/3 | 0/9 | GFTFDDYAMH | GISWNSGSIGWADSVK | TGRGGGYFDY |
| no signal | 0/3 | 2/9 | GFTFDDAAMH | RISWNSGSIGYADSVK | VGRTGGYFDY |
| 2.40 | 2/3 | 0/9 | GFTFDDYAMH | GISWNSGSIGYADTSK | VGRGGGYFPY |
| no signal | 0/3 | 0/9 | GFTFDDYAMH | GISWNSGSIIYADSVY | VGRGGFYFDY |
| 5.05 | 1/3 | 2/9 | GFTFDDYAMH | NISWNSGSTGYADSKK | VGRGGGYFDY |
| 4.69 | 2/3 | 4/9 | GFTFDDYMMH | GISWNSGSIGYADSVK | VGSGGGQFDY |
| 5.62 | 3/3 | 6/9 | GFTFDDYAMH | GISGRSGSIKYADSVK | VGRGGGYFDY |
| 3.63 | 1/3 | 2/9 | GFTKDDYAMH | GISWNSGSIGYADSVR | VYRGGGYFDY |
| 4.48 | 2/3 | 2/9 | GFTFDDYAMH | GISWNRGSIGYADSVK | VGRGGGKFDE |
| no signal | 0/3 | 0/9 | GFTFDDTAMH | GISWNSGSIGYADDVK | VGRGGGWFDY |
| no signal | 0/3 | 0/9 | GFTFDDYAMH | GISWSWGSIGYADSNK | VGRGGGYFDY |
| 5.06 | 1/3 | 3/9 | GFTFDDYAMH | GISWNSGSIGIADSVK | VGRKGTYFDY |
| no signal | 0/3 | 0/9 | GFTFDDYMMH | GISWNSGSIGYPDSVK | VGRGTGYFDY |
| no signal | 0/3 | 0/9 | GFTFDIYAMH | GISWNSVSIGYADSVK | MGRGGGYFDY |
| 1.05 | 3/3 | 2/9 | GFTFDDYAMH | GISWNSGSIGYADSVK | VGRGGGFTDY |
| no signal | 0/3 | 0/9 | GFTEDDYAMH | IISWNSGSIGYADSRK | VGRGGGYFDY |
| 5.63 | 1/3 | 2/9 | GFTFDAYAMH | GIMWNSGSIGYADSVK | VGRDGGYFDY |
| 4.04 | 2/3 | 0/9 | GFCFDDYAMH | GDSWNSGSIGYPDSVK | VGRGGGYFDY |
| no signal | 0/3 | 0/9 | GFTFDDYAMH | DISWNSGSDGYTDSVK | VGRGGGYFDY |
| 4.75 | 2/3 | 2/9 | GFTFMDYAMH | DISWNSGSIGYADSVK | CGRGGGYFDY |
| no signal | 0/3 | 0/9 | GFTFDDYAMH | GISRNSGSIGYADSVK | EGRGGLYFDY |
| no signal | 0/3 | 0/9 | GFTFDDYAMH | GISWNSGSIGYAFDVK | VGRGGGYFTY |
| no signal | 0/3 | 1/9 | GFNFDDYAMH | GISWNSGSIGYADSVK | VGRGTGYFFY |
| 2.35 | 3/3 | 5/9 | GFTFDDYAMH | GISWNSGSIGAADSVK | VGRGGGYFDM |
| 4.32 | 2/3 | 0/9 | GFGFDDYAMH | GISWNSGSIGYAFSVK | VGRGGGGFDY |
| no signal | 0/3 | 4/9 | GTTFDDYAMH | GIKWNSGSIGYADHVK | VGRGGGYFDY |
| 4.53 | 3/3 | 2/9 | GFTFDEYAMH | GISWNSGSIGYADSVK | VGGGGGYFCY |
| 1.78 | 3/3 | 2/9 | GFTFDDYAMH | GISWNSGSIGYADSVG | VGRGGGVFDY |
| 4.83 | 2/3 | 4/9 | GFTFDDYAMH | GIQWNSGSGGYADSVK | VGRGGFYFDY |
| 3.53 | 2/3 | 1/9 | GFTFDDYAMH | GISWSSGSIGYNDSVK | VGRGGGYFDY |
| no signal | 0/3 | 1/9 | GFTRDDYAMH | GISWNSGSIGYADSVK | VGRGSGYFDY |
| no signal | 0/3 | 1/9 | GFTFMDYAMR | GISWNSGSIGYADSVK | VGRGGGYFDM |
| no signal | 0/3 | 0/9 | GFTFDDYMMH | GIWWNSGSIGYADSVK | VGRGCGYFDY |
| no signal | 0/3 | 0/9 | MFTFDDYAMH | GISWNSGSAGYADSWK | VGRGGGYFDY |
| 5.23 | 1/3 | 1/9 | HFTFDDYAMH | GISWNSGSIGYKDTVK | VGRGGGYFDY |
| 5.08 | 2/3 | 5/9 | CFTFDDYAMH | GISWNSGSIGYLDSVK | VGRGGGYFDY |
| no signal | 0/3 | 0/9 | GFTFDDGAMH | RISWNSGSIGYADSMK | VGRGGGYFDY |
| no signal | 0/3 | 0/9 | GFTFDDYAMH | GISWNSGSIGYADSYK | VGRGPKYFDY |
| 5.59 | 1/3 | 7/9 | GFSFDDYAMH | GESWNSGSIGYADSVK | EGRGGGYFDY |
| 1.25 | 3/3 | 3/9 | GFTFDDYAFH | GISWNSGSIGYADAVK | VGRGGGYFDV |
| no signal | 0/3 | 0/9 | GFTDDNYAMH | GISWNFGSIGYADSVK | VGRGGGYFDY |
| no signal | 0/3 | 0/9 | GFTFDDYAMH | GISWNSFSIGYADSVK | NGRGGGYDDY |
| no signal | 0/3 | 0/9 | GFTFDDYAYH | GIYWNSGSIGYADSVK | VGRGGMYFDY |
| 3.09 | 3/3 | 0/9 | GFTFDDYAMH | GISRNSGSIGYADSVK | GGRGGGMFDY |
| 4.10 | 2/3 | 1/9 | GFTFDDYAMH | GISTNSGSIGYADSVK | VIIGGGYFDY |
| 3.60 | 3/3 | 4/9 | GFTFDKYAMH | GISWNSGSIGKADSVK | VGRGGGYFDY |
| no signal | 0/3 | 5/9 | GFTFDDYAMH | GDSWNSGSIGAADSVK | VGRGGGYFDY |
| 5.34 | 1/3 | 2/9 | GFTFDDYAMH | GISGNSGSIGYADSVK | VSRGGGYRDY |
| no signal | 0/3 | 0/9 | GFTFDSYAMH | GISWNSCSIGYADSKK | VGRGGGYFDY |
| 5.29 | 2/3 | 3/9 | GFTFDDYAMH | GISWNSGSIGYAINVK | VGRVGGYFDY |
| 5.47 | 1/3 | 1/9 | GFTFDDYAMH | GISWNSGQIGYYDSVK | DGRGGGYFDY |
| no signal | 0/3 | 0/9 | GFTFDDWTMH | GISWNSGSIGYACSVK | VGRGGGYFDY |
| 3.04 | 1/3 | 0/9 | GFTFDDYAMH | AIIWSSGSIGYADSVK | VGRGGGYFDY |
| 3.49 | 2/3 | 2/9 | GFTFDDYAMH | GISWNTGSIGYADSVK | VGRGGGYLDY |
| 5.38 | 1/3 | 0/9 | GFTFDDYAMH | GIFWNSGMIGYADSVK | VGRGIGYFDY |
| 3.75 | 2/3 | 3/9 | GFTFDDYAMH | GISWNTGSIGYADSVK | VGRGGGSFEY |
| no signal | 0/3 | 0/9 | GFQFDDYAMD | GISWNSGRIGYADSVK | VGRGGGYFDY |
| no signal | 0/3 | 3/9 | GFTFNDYAMN | GISWNSGSIGYADSVK | VGRGGGYFDY |
| 3.73 | 2/3 | 0/9 | GSTFDDYAMH | GISWNSGSIGYADSVA | VGRGGGYFDR |
| no signal | 0/3 | 3/9 | GFTFDWYAMH | EIVWNSGSIGYADSVK | VGRGGGYFDY |
| 2.93 | 3/3 | 0/9 | GFTFDDYAMH | GISWNSGSIGYADSVK | GGRGGGWFDY |
| 4.38 | 1/3 | 3/9 | GFTFDDYAMH | GQSWNSGSCGYADSVK | VGRGGGYFDI |
| 4.76 | 1/3 | 1/9 | GFTFDDYAMH | GISWNSGSIGYADSRK | VGRGGGYFDK |

A selection of 9 entries from above:

| CDR-H1 | CDR-H2 | CDR-H3 | mean log10 Kd (nM) | detected | signal with controls |
|---|---|---|---|---|---|
| GFTFDDYAMH | GDSWNSGSIGAADSVK | VGRGGGYFDY | no signal | 0/3 | 5/9 |
| GETFDDYIMH | GISVNSGSIGYADSVK | VGRGGGYFDY | no signal | 0/3 | 1/9 |
| GFTFDDYAMH | GISWNSGSIGYADSRK | VGRGGGYFDK | 4.76 | 1/3 | 1/9 |
| GFTFDSYAMH | GISWNSCSIGYADSKK | VGRGGGYFDY | no signal | 0/3 | 0/9 |
| GFTFDDYAMH | GIFWNSGMIGYADSVK | VGRGIGYFDY | 5.38 | 1/3 | 0/9 |
| GFTFDDYAMH | GISTNSGSIGYADSVK | VIIGGGYFDY | 4.10 | 2/3 | 1/9 |
| GFTFDDYAMH | GISRNSGSIGYADSVK | GGRGGGMFDY | 3.09 | 3/3 | 0/9 |
| GFTFDWYAMH | EIVWNSGSIGYADSVK | VGRGGGYFDY | no signal | 0/3 | 3/9 |
| GFTFDDYAMH | GISWNSGSIGYADSVK | GGRGGGWFDY | 2.93 | 3/3 | 0/9 |

From the AlphaSeq antibody data of Engelhart et al. 2022 (doi:10.1038/s41597-022-01779-4), copy in the FLAb collection.